Data reported in PMC6803667 (Scientific Reports, 2019).
Values joined by “and” are separate entries in the source; they are usually repeats but may differ in a detail not shown here. Equal entries are not always repeated.

Target: T1, third WW domain of human NEDD4 (hNEDD4-WW3), unlabelled (human, UniProt P46934 834-878)
T1 construct: not shown: GST, N-terminal, cleaved; His tag, N-terminal, cleaved
Experiment: ITC
Conditions: both partners purified

EYPPYPPPPYPSG (acetylated N-terminus, amidated C-terminus) [p53bp2 human peptide]
Kd: 4.1 µM and 5.3 µM and 9.1 µM | dH: -45.6 kJ/mol and -53.2 kJ/mol
